In paper PMC5932250 (Journal of the American Chemical Society, 2018):

How the values were obtained:
Experiment in all cases: fluorescence polarisation
[1] = target: His6-SgbL (Streptomyces globisporus subsp. globisporus NRRL B2293)
[2] = target: FITC-SgbA(−11 to −28) (Streptomyces globisporus subsp. globisporus NRRL B2293)
[3] = target: FITC-SgbA(−15 to −23) (Streptomyces globisporus subsp. globisporus NRRL B2293)
[4] = target: FITC-SgbA(−9 to −23) (Streptomyces globisporus subsp. globisporus NRRL B2293)
[5] = target: FITC-SgbA(leader) (Streptomyces globisporus subsp. globisporus NRRL B2293)

Substance	IC50 [1] [µM]	also measured
Ac-SgbA(−1 to −20) (peptide)	174	
Ac-SgbA(−9 to −23) (peptide)	197	
His6-SgbL (enzyme)		Kd [2]: 530 nM; Kd [3]: 2070 nM; Kd [4]: 744 nM; Kd [5]: 188 nM

Second part, led by results:

IC50 [1] [µM]	Substance	also measured
147	Ac-SgbA(−15 to −23) (peptide)	
4.5	SgbA(leader) (peptide)	
16.5	SgbA(−11 to −28) (peptide)	
